Screens (PubChem)
An excerpt weighted towards active compounds, which were near 1.8% of everything screened.
Cneo AK release = Cryptococcus neoformans cell lysis inducers, primary screen, AK release luminescence, single concentration; C. neoformans lysis, adenylate kinase release luminescence, 4 h; normalised: neutral wells 0, clomiphene wells 100; lysis activity, % at 15 µM; 0.2% of 360,000 active; AID 651654, 2012;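 active means mean lysis activity across replicates of at least 80%, whatever share of replicates individually reach that level; inactive means mean lysis activity below 80%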
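Signal: Adenylate kinase release luminescence | Assay system: Log-phase Cryptococcus neoformans yeast cells | Input: Cells at 5 × 10^6 per mL | Buffer or medium: Fresh YPD growth medium | Compound: Single dose | Schedule: Static 4 h at 37 °C with compound, 1 h detection | Controls: Clomiphene | Read-out: Luminescence rise reflecting yeast cell lysis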
Yeast UUG start = modulators of yeast start codon fidelity, primary screen, whole organism, S. cerevisiae, single point, plate reader | AID 602363, 2012 | S. cerevisiae UUG-firefly luciferase reporter, luminescence/redox ratio | activity score, % at 18.7 µM | hit rate 0.13% among 350,000;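 active = replicate mean at a twofold rise or more, about +100% in these data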;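 also: firefly luciferase made from a UUG start codon reports start codon fidelity; reporter light over untreated wells divided by growth signal over untreated wells; some hits fall short of that in this replicate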
DENV2 CPE = inhibitors of DENV2 cytopathic effect, primary screen, cell-based, plate reader, single concentration. CPE inhibition, % at 9.99 µM. 1.7% of 350,000 active. DENV2-infected cells, cytopathic effect rescue; in the data active means CPE inhibition above about 20%, passing the limit was not always enough; inconclusive means no clear call, values can overlap the other calls; tested in BHK-21 cells;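 further: 0% = median of neutral control wells and 100% = median of positive control wells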
E-sel inducer = E-selectin induction in HUVECs, primary screen, imaging, HUVEC, immunofluorescence imaging, single point; activation, % at 7.58 µM; normalized: neutral wells 0, TNF-alpha wells 100; AID 686992, 2013; 0.37% of 260,000 active;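 active means mean E-selectin-positive cell signal at least 10% of the positive control, reached in at least 60% of replicates, without over 20% cell loss; inconclusive means no rule given, readout overlaps actives, possibly toxicity-flagged; inactive means the rest, including those meeting only one limit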
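Test system: HUVEC | Signal: Immunofluorescence imaging | Read-out: Percent E-selectin-positive cells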
* marks the source's active call; other numbers are inactive results; ? = inconclusive; nt = not tested or not shown.

cpd | SMILES | Cneo AK release | Yeast UUG start | DENV2 CPE | E-sel inducer
1 | C/C=C/c1cnc2c(c1)C(=O)N([C@H](C)CO)C[C@H](C)[C@@H](CN(C)C(=O)Nc1ccc(OC)cc1)O2 | -5.3 | 24.3 | -4.5 | 0.6
2 | CCCC#Cc1cnc2c(c1)C(=O)N([C@@H](C)CO)C[C@@H](C)[C@H](CN(C)C(=O)Nc1ccccc1F)O2 | 2.1 | 7.2 | 1.3 | -0.1
3 | O=C(C[C@H]1CC[C@H](NC(=O)CC2CC2)[C@@H](CO)O1)NCc1ccccc1 | nt | nt | -8.0 | -0.1
4 | COCC(=O)N1[C@@H]2CN(C(=O)c3ccncc3)c3ccccc3[C@@H]2[C@@H]1CO | 1.0 | -17.3 | nt | 0.1
5 | CCCC(=O)N1C[C@@H]2[C@H](c3ccccc31)[C@@H](CO)N2C(=O)Nc1ccccc1 | -9.3 | 26.0 | -3.2 | 0.9
6 | O=C(c1cccnc1)N1C[C@H]2[C@@H](c3ccccc31)[C@H](CO)N2C(=O)Nc1ccc(F)cc1 | -0.1 | 57.4 | 67.1* | 0.6
7 | O=C(c1cccnc1)N1C[C@H]2[C@@H](c3ccccc31)[C@@H](CO)N2C(=O)Nc1ccc(F)cc1 | 117.6* | 20.4 | -9.7 | 0.9
8 | CCCC(=O)N1C[C@H]2[C@@H](c3ccccc31)[C@@H](CO)N2C(=O)Nc1ccc(F)cc1 | 0.9 | 2.2 | 28.4* | 0.0
9 | O=C(c1cccnc1)N1C[C@@H]2[C@H](c3ccccc31)[C@@H](CO)N2C(=O)Nc1ccccc1 | -0.1 | 22.6 | -5.0 | 0.0
10 | COCC(=O)N1[C@H](CO)[C@H]2c3ccccc3N(C(=O)c3cccnc3)C[C@H]21 | -4.6 | 52.6 | 58.8* | -0.1
11 | O=C(C1CCC1)N1CC(=O)N2[C@H](CO)[C@@H](c3ccc(C#Cc4cccc(F)c4)cc3)[C@H]2C1 | nt | nt | 4.8 | 0.3
12 | O=C(Nc1ccc2c(c1)[C@H]1C[C@H](CC(=O)N3CCc4ccccc4C3)O[C@H](CO)[C@H]1O2)C1CCC1 | 0.2 | 5.3 | -1.5 | -0.5
13 | Cc1csc(/C(=N/OC(=O)c2ccco2)C(N)=O)n1 | -0.3 | -23.1 | 35.0* | nt
14 | O=C(NC1CCCC1)N[C@H]1CC[C@@H](CC(=O)N2CCOCC2)O[C@H]1CO | 1.6 | -3.9 | 4.3 | -0.7
15 | CNC[C@@H]1Oc2ccc(NC(=O)c3ccncc3)cc2C(=O)N([C@H](C)CO)C[C@H]1C | -5.1 | -8.0 | 15.2 | -0.2
16 | Nc1nnc(SCC(=O)Nc2cccc(Cl)c2)s1 | nt | nt | 49.5* | 3.0
17 | Nc1nnc(SCC(=O)Nc2ccc(N3CCOCC3)c(Cl)c2)s1 | -4.8 | -20.5 | 10.2 | -0.3
18 | O=C(Cc1ccccn1)N1CC2(C1)[C@@H](c1ccccc1)[C@@H](CO)N2C(=O)c1ccncc1 | nt | nt | 5.4 | 0.4
19 | COCC(=O)N1[C@H](CO)[C@H](c2ccccc2)C12CN(C(=O)Nc1ccccc1F)C2 | nt | nt | 35.7* | -0.1
20 | COCC(=O)N1[C@H](CO)[C@@H](c2ccccc2)C12CN(C(=O)Nc1ccccc1F)C2 | nt | nt | 18.0 | -0.2
21 | O=C(Cc1ccccn1)N1CC2(C1)[C@H](c1ccccc1)[C@@H](CO)N2C(=O)c1ccncc1 | nt | nt | 45.5* | 0.4
22 | COCC(=O)N1CC2(C1)[C@H](c1ccccc1)[C@H](CO)N2C(=O)c1ccncc1 | nt | nt | 4.0 | -0.2
23 | COCC(=O)N1CC2(C1)[C@@H](c1ccccc1)[C@@H](CO)N2C(=O)c1ccncc1 | nt | nt | 30.4* | 0.0
24 | CNC(=O)C[C@@H]1CC[C@@H]2[C@H](COC[C@@H](O)CN2Cc2ccc(C(F)(F)F)cc2)O1 | -1.4 | nt | -2.2 | 0.0
25 | C[C@@H]1CN([C@H](C)CO)C(=O)c2cc(C#Cc3ccncc3)cnc2O[C@H]1CN(C)C(=O)c1ccccc1F | -2.1 | -11.7 | -4.0 | 2.5
26 | C=CCN1C(=O)N/C(=C/c2ccccc2OCC(=O)Nc2ccc(F)cc2)C1=O | nt | nt | 22.2* | 2.1
27 | O=C(COc1ccccc1/C=C1/NC(=O)NC1=O)Nc1ccccc1 | -2.9 | -20.4 | -3.9 | 0.3
28 | CS(=O)(=O)NCc1ccc(C(=O)NCCOc2ccccc2)cc1 | nt | nt | 30.7* | nt
29 | CCS(=O)(=O)NCC[C@H]1CC[C@H](NS(=O)(=O)c2cccc(F)c2)[C@H](CO)O1 | 110.2* | 16.5 | nt | 2.4
30 | Cc1cccc(S(=O)(=O)N[C@@H]2CC[C@@H](CCNC(=O)Nc3cc(F)ccc3F)O[C@@H]2CO)c1 | -7.4 | 3.9 | 39.1* | -0.1

Remaining list, next part
cpd | SMILES | Cneo AK release | Yeast UUG start | DENV2 CPE | E-sel inducer
31 | CCS(=O)(=O)NCC[C@@H]1CC[C@@H](NS(=O)(=O)c2cccc(F)c2)[C@@H](CO)O1 | 98.3* | 4.3 | ? | -0.1
32 | COc1ccc2c3c(n(C)c2c1)[C@H](CO)N(C)CC31CN(S(C)(=O)=O)C1 | nt | nt | 22.6* | -0.2
33 | CCS(=O)(=O)N1CCC2(CC1)CN(C)[C@H](CO)c1c2c2ccc(OC)cc2n1C | nt | nt | -0.3 | 0.3
34 | COc1ccc2c3c(n(C)c2c1)[C@@H](CO)N(S(=O)(=O)c1ccc(C)cc1)CC31CN(S(=O)(=O)c2ccc(C)cc2)C1 | nt | nt | 62.7* | -0.3
35 | C[C@@H]1CN([C@@H](C)CO)C(=O)c2cccc(NC(=O)c3ccc(-c4nccs4)cc3)c2O[C@@H]1CN(C)S(=O)(=O)c1cn(C)cn1 | 1.0 | 7.0 | -9.5 | -0.1
36 | COc1cccc(C(NC(C)=O)c2nc(/C=C/c3ccccc3)cs2)c1 (centres undefined) | 2.1 | -30.6 | 29.7* | 0.0
37 | CC(C)NC(=O)Nc1ccc2c(c1)C(=O)N([C@@H](C)CO)C[C@@H](C)[C@H](CN(C)Cc1ccncc1)OCCCC[C@@H](C)O2 | 111.4* | nt | -3.3 | -0.2
38 | C[C@@H]1CCCCO[C@H](CN(C)Cc2ccncc2)[C@@H](C)CN([C@@H](C)CO)C(=O)c2cc(NC(=O)NC3CCCCC3)ccc2O1 | 52.0 | 0.5 | 75.4* | 0.4
39 | C[C@@H]1CN([C@H](C)CO)C(=O)c2cc(NC(=O)NC3CCCCC3)ccc2O[C@H]1CN(C)Cc1ccncc1 | 60.6 | -10.9 | 6.7 | -0.1
40 | C[C@@H]1CCCCO[C@H](CN(C)Cc2ccncc2)[C@@H](C)CN([C@@H](C)CO)C(=O)c2cc(NC(=O)Nc3ccccc3)ccc2O1 | 81.1* | nt | ? | 0.0
41 | C[C@H]1CN([C@@H](C)CO)C(=O)c2cc(NC(=O)NC3CCCCC3)ccc2O[C@H]1CN(C)Cc1ccncc1 | -9.2 | -3.5 | 24.9* | 0.1
42 | C[C@H]1CCCCO[C@H](CN(C)Cc2ccncc2)[C@@H](C)CN([C@@H](C)CO)C(=O)c2cc(NC(=O)Nc3ccccc3)ccc2O1 | -1.3 | nt | 3.3 | 0.0
43 | O=C(C[C@@H]1C[C@H]2c3cc(NC(=O)c4ccc5c(c4)OCO5)ccc3O[C@H]2[C@H](CO)O1)NC1CCCCC1 | 0.0 | nt | -3.9 | -0.3
44 | CN(C)CC(=O)N1[C@H](C(=O)NCc2ccccc2F)[C@@H](CO)[C@@H]2Cn3c(cccc3=O)[C@@H]21 | nt | nt | -5.2 | -0.3
45 | COc1cccc(S(=O)(=O)N[C@@H]2CC[C@H](CCNC(=O)Nc3cc(F)ccc3F)O[C@@H]2CO)c1 | -3.9 | 6.2 | ? | -0.1
46 | CC(=O)c1cccc(NC(=S)N2CCN(S(=O)(=O)c3ccccc3)CC2)c1 | -1.6 | -1.6 | 68.9* | -0.2

One compound at a time, from the list above. Values in the order: Cneo AK release | Yeast UUG start | DENV2 CPE | E-sel inducer
Results for CC(C)NC(=O)Nc1ccc2c(c1)C(=O)N([C@@H](C)CO)C[C@@H](C)[C@H](CN(C)Cc1ccncc1)OCCCC[C@@H](C)O2 = 111.4* | nt | -3.3 | -0.2
Results for O=C(C[C@@H]1C[C@H]2c3cc(NC(=O)c4ccc5c(c4)OCO5)ccc3O[C@H]2[C@H](CO)O1)NC1CCCCC1 = 0.0 | nt | -3.9 | -0.3
Results for CCS(=O)(=O)NCC[C@@H]1CC[C@@H](NS(=O)(=O)c2cccc(F)c2)[C@@H](CO)O1 = 98.3* | 4.3 | ? | -0.1
Results for COc1cccc(C(NC(C)=O)c2nc(/C=C/c3ccccc3)cs2)c1 (centres undefined) = 2.1 | -30.6 | 29.7* | 0.0
Results for COc1ccc2c3c(n(C)c2c1)[C@@H](CO)N(S(=O)(=O)c1ccc(C)cc1)CC31CN(S(=O)(=O)c2ccc(C)cc2)C1 = nt | nt | 62.7* | -0.3
